Reference: US20160279190A1, “MODULATION OF AXON DEGENERATION” (GENENTECH, INC., priority 2008, published 2016)

Tested on: dorsal root ganglion neurons
Assay: EGFR ectodomain in NGF withdrawal-induced axon degeneration
Format: cell-based, mouse
Conditions: 50 μg/mL, added 24 hours prior to or at the same time as 25 μg/ml anti-NGF
Experimental: Materials used in these studies include BD Biocoat PDL/Laminin coated glass 8 well chamber slides (BD 354688); L15 medium (Invitrogen 11415114); albumin from bovine serum (BSA) (Sigma A7906-500 g); fetal bovine serum (Sigma F2442-100 ml); N3 supplement (see above); Fluoromount G (Electron Microscopy Sciences 17984-25); 24×60 mm No. 1 coverslips (VWR 48393 106); monoclonal anti-neuronal class III beta-tubulin (Covance MMS-435P); Nerve Growth Factor 2.5 S, mouse (Roche 11362348001) in Ham's F12; and Triton X-100 (Sigma T8787-100 ml). Solutions used in these experiments include 25 ml N3/F12 medium (23 ml of Ham's F12; 1 ml of N3 supplement; 1 ml of 1M glucose; 25 ng/ml of NGF) and 30% Sucrose/8% PFA (see above).
Ectodomains (R&D Systems) were resuspended in sterile filtered 0.1% BSA in PBS to 1 mg/ml. Mouse E13.5 embryos were dissected out and place into L15 medium. Using forceps, the ventral region of the embryo was opened, organs removed, ribs cut away, and spinal cord dissected out with DRGs attached. The spinal cords with DRGs attached were placed into L15 medium+5% goat serum on ice. DRGs were removed with a tungsten needle and the remaining spinal cord was disposed of. 8 well slides were filled with N3-F12 plus 25 ng/ml NGF. DRGs were sectioned into halves. […]

Q: With “EGFR ectodomain: EGFR ectodomain from R&D Systems, added to bind free EGFR ligands” as the substance, how does the “block of axon degeneration induced by NGF withdrawal” value read?
A: Its value is “does not block axon degeneration”.
